# Results taken from patent US20190352268A1, “CANNABINOID RECEPTOR MEDIATING COMPOUNDS” (The USA, as represented by the Secretary, Department of …, priority 2015, published 2019).
# Assay: Tissue levels (brain and plasma) after administration to mice
# Conditions: 1 hour after administration of 10 mg/kg to mice
structure (smiles),measurement,value
CC(=N)N/C(=N\S(=O)(=O)c1ccc(Cl)cc1)N1C[C@H](c2ccccc2)C(c2ccc(Cl)cc2)=N1 [Compound 2E1],brain tissue level relative to plasma level,< 2%
